According to US20220183937A1, “METHOD FOR IMPROVING THE PERFORMANCE OF A FRAGRANCE OR A FRAGRANCE MIXTURE” (SYMRISE AG, priority 2019, published 2022):

Test: Boiling point of fragrance raw materials

Substance	Boiling Point (Example 1, fragrances for long lasting performance, head range 1.00 a 230.0) [°C]	Boiling Point (Example 2, fragrances for thermo boost performance, head range 230.1 a 300.0) [°C]
HEXENYL ACETATE CIS TRANS-3	176.6	
PARMANYL®		249.6
